Reference: US20060281897A1, “Potentialization of the activation of high molecular weight prodrugs” (priority 2003, published 2006)

Legend:
[1] = system: LS-174T human colorectal adenocarcinomas xenografts; details: 80 μmol/kg, 30 minute i.v. infusion; for AUC0-24hrs Leu-doxorubicin in tumor / AUC0-24hrs doxorubicin in tumor: LS-174T tumors; for time after infusion at which Leu-doxorubicin and doxorubicin are detected in tumor: sampling 1, 3, 6, 24 hours
[2] = 24-hour incubation at 37° C. in culture medium containing 10% fetal calf serum, 20 μM
MCF-7/6 cells = test: Cytotoxicity test (WST-1 cell viability); details: 48 hours incubation + 24 hours post-incubation
[3] = system: peptidases secreted by MCF-7/6 tumor cells; test: Reactivation (hydrolysis) of prodrugs in medium conditioned by MCF-7/6 tumor cells, HPLC; details: MCF-7/6 conditioned medium, compound 20 μM, 6 hours, 37° C.
[4] = system: peptidases secreted by LS-174T tumor cells; test: Reactivation (hydrolysis) of prodrugs in medium conditioned by LS-174T tumor cells, HPLC; details: LS-174T conditioned medium, compound 20 μM, 6 hours, 37° C.
[5] = system: LS-174T human colon cancer xenografts; test: In vivo tumor reactivation of PEGylated prodrug derivatives (Dox and Leu-Dox accumulated in tumor); details: i.v. bolus 69 μmol/kg, LS-174T tumor

PEG30,000-(DSer)8-Ala-Leu-Ala-Leu-Doxorubicin [PEG30,000-(DSer)8-ALAL-Dox]
AUC0-24hrs Leu-doxorubicin in tumor [1]: 21.10 UNITS | AUC0-24hrs doxorubicin in tumor [1]: 3.90 UNITS | time after infusion at which Leu-doxorubicin and doxorubicin are detected in tumor [1]: one hour following the infusion

PEG30,000-Ala-Leu-Ala-Leu-Doxorubicin [PEG30,000-ALAL-Dox]
AUC0-24hrs Leu-doxorubicin in tumor [1]: 13.26 UNITS | AUC0-24hrs doxorubicin in tumor [1]: 1.56 UNITS | time after infusion at which Leu-doxorubicin and doxorubicin are detected in tumor [1]: 6 h

PEG2000-(DSer)4-beta-Ala-Leu-Ala-Leu-doxorubicin [PEG2000-(DSer)4-beta-ALAL-Dox]
stability [2]: stable

PEG2000-(DSer)-beta-Ala-Leu-Ala-Leu-doxorubicin [PEG2000-DSer-beta-ALAL-Dox]
cytotoxicity (MCF-7/6 cells): not cytotoxic

PEG2000-beta-Ala-Leu-Ala-Leu-doxorubicin [PEG2000-beta-ALAL-Dox]
stability [2]: stable | DOX concentration reached [3]: 0.00 µM | L-DOX concentration reached [3]: 0.69 + μM | DOX concentration reached [4]: 0.00 µM | L-DOX concentration reached [4]: 1.31 µM | DOX concentration in tumor ([5]; 2 hours after injection): 0.38 nmol/mg | Leu-DOX concentration in tumor ([5]; 2 hours after injection): 0.78 nmol/mg | DOX concentration in tumor ([5]; 72 hours after injection): 1.71 nmol/mg | Leu-DOX concentration in tumor ([5]; 72 hours after injection): 0.12 nmol/mg
